One may read the Ki as a measure of affinity in units of concentration, obtained from inhibition or displacement.

Amino acid sequences for entries named in this document (tags omitted). Residues count along the entry.
UniProt P28335, 33-458: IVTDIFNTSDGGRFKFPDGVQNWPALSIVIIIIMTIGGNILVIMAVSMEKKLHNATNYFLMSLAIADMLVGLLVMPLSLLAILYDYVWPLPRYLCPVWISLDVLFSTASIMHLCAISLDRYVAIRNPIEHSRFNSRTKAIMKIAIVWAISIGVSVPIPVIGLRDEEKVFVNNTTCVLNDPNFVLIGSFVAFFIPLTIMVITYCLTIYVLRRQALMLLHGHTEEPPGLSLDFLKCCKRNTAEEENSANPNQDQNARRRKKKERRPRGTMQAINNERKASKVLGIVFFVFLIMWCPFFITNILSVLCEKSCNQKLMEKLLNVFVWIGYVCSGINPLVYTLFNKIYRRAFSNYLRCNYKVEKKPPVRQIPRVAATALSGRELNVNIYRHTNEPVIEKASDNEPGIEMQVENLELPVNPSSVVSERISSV

The assay deals with T1, human 5-hydroxytryptamine2C (h5HT2C) receptor (Homo sapiens, UniProt P28335).
T1 construct: expressed in transfected cells; host or cells: CHO (Chinese Hamster Ovary) cells; membrane preparation
Nature of the assay: 5HT2C receptor binding ([125I]DOI displacement, CHO cell membranes). As to conditions: [125I]DOI binding, CHO membranes expressing h5HT2C; 95% confidence interval in brackets; read-out: Ki (95% confidence interval), reference compounds.

Consider “1-(2,5-dimethoxy-4-iodophenyl)isopropylamine [DOI, reference compound]”, for which the Ki worked out at 6.2 nM.

The values are drawn from US7687620B2, “[1,4]diazepino[6,7,1-IJ]quinoline derivatives as antipsychotic and antiobesity agents” (Wyeth LLC, priority 2002, dated 2010).
